## Permeability data for macrocyclic peptides

Collected by the curators of CycPeptMPDB (Li et al. 2023) from Townsend et al. 2020, doi:10.26434/chemrxiv.13335941.v1.

PAMPA measures passive passage through an artificial lipid membrane. P is given in units of 10^-6 cm/s (from log10 values with two decimals); larger means faster passage.

The entry for CC(C)C[C@@H]1NC(=O)[C@@H]2CCCN2C(=O)C[C@H](Cc2ccccc2)NC(=O)[C@@H](CC(C)C)N(C)C(=O)C[C@H](Cc2ccccc2)NC(=O)[C@@H]2CCCN2C(=O)[C@H](Cc2ccccc2)NC1=O lists PAMPA 4.3 × 10^-6 cm/s. CCCN1CC(=O)N[C@H](CC(C)C)C(=O)N[C@@H](Cc2ccccc2)CC(=O)N2CCC[C@H]2C(=O)N(C)[C@@H](CC(C)C)C(=O)N[C@@H](Cc2ccccc2)C(=O)N2CCC[C@H]2C1=O has PAMPA 3.2 × 10^-6 cm/s. Listed for CC(C)C[C@@H]1C(=O)N[C@@H](Cc2ccccc2)C(=O)N(C)[C@H](C)C(=O)N[C@H](CC(C)C)C(=O)N[C@H](CC(C)C)C(=O)N2CCC[C@@H]2C(=O)N1C: PAMPA 1.1 × 10^-6 cm/s. Listed for CCCN1CC(=O)N[C@H](CC(C)C)C(=O)N[C@H](CC(C)C)C(=O)N2CCC[C@@H]2C(=O)N[C@H](CC(C)C)C(=O)N[C@@H](Cc2ccccc2)C(=O)N2CCC[C@H]2C1=O: PAMPA 0.17 × 10^-6 cm/s.

CCCN1CC(=O)N[C@@H](CC(C)C)C(=O)N(Cc2ccccc2)CC(=O)N2CCC[C@@H]2C(=O)N[C@@H](CC(C)C)C(=O)N[C@@H](Cc2ccccc2)C1=O is reported with PAMPA 1.3 × 10^-6 cm/s. For CC(C)C[C@@H]1NC(=O)[C@@H](CC(C)C)N(C)C(=O)[C@@H](C)NC(=O)[C@H]2CCCN2C(=O)[C@H](Cc2ccccc2)NC(=O)[C@H](CC(C)C)N(C)C(=O)[C@H]2CCCN2C1=O the data give PAMPA 13 × 10^-6 cm/s. For CC(C)C[C@@H]1NC(=O)[C@@H](CC(C)C)NC(=O)[C@@H](C)NC(=O)[C@H](Cc2ccccc2)NC(=O)CN(Cc2ccccc2)C(=O)[C@@H]2CCCN2C1=O the data give PAMPA 0.46 × 10^-6 cm/s. CC(C)C[C@@H]1C(=O)N(Cc2ccccc2)CC(=O)N2CCC[C@H]2C(=O)N(C)[C@H](CC(C)C)C(=O)N[C@@H](Cc2ccccc2)C(=O)N2CCC[C@@H]2C(=O)N[C@@H](Cc2ccccc2)CC(=O)N1C has PAMPA 3.3 × 10^-6 cm/s.

The entry for CC(C)C[C@@H]1NC(=O)[C@H](C)N(C)C(=O)[C@H](Cc2ccccc2)NC(=O)[C@H](CC(C)C)NC(=O)[C@@H]2CCCN2C(=O)[C@@H](CC(C)C)NC1=O lists PAMPA 3.8 × 10^-6 cm/s. Listed for CCCN1CC(=O)N(C)[C@H](CC(C)C)C(=O)N[C@@H](CC(C)C)C(=O)N2CCC[C@@H]2C(=O)N[C@@H](CC(C)C)C(=O)N[C@@H](Cc2ccccc2)C(=O)N2CCC[C@@H]2C1=O: PAMPA 1.6 × 10^-6 cm/s. The entry for CC(C)C[C@@H]1NC(=O)[C@@H](C)N(C)C(=O)[C@H](Cc2ccccc2)NC(=O)[C@@H](CC(C)C)N(C)C(=O)[C@H]2CCCN2C(=O)[C@H](CC(C)C)NC1=O lists PAMPA 3.5 × 10^-6 cm/s. Listed for CC(C)C[C@@H]1NC(=O)CN(Cc2ccccc2)C(=O)[C@@H](C)N(C)C(=O)[C@@H]2CCCN2C(=O)[C@H](Cc2ccccc2)NC(=O)[C@H](CC(C)C)N(C)C(=O)[C@H]2CCCN2C1=O: PAMPA 4.5 × 10^-6 cm/s.

The entry for CCCN1CC(=O)N[C@@H](CC(C)C)C(=O)N[C@@H](Cc2ccccc2)CC(=O)N2CCC[C@H]2C(=O)N(C)[C@H](CC(C)C)C(=O)N[C@@H](Cc2ccccc2)C(=O)N2CCC[C@@H]2C1=O lists PAMPA 3.6 × 10^-6 cm/s. CC(C)C[C@@H]1NC(=O)[C@H]2CCCN2C(=O)[C@H](CC(C)C)NC(=O)[C@H](CC(C)C)N(C)C(=O)C[C@H](Cc2ccccc2)NC(=O)[C@H]2CCCN2C(=O)[C@H](Cc2ccccc2)NC1=O has PAMPA 2.5 × 10^-6 cm/s. CC(C)C[C@@H]1NC(=O)[C@@H](C)N(C)C(=O)[C@H]2CCCN2C(=O)[C@H](Cc2ccccc2)NC(=O)[C@H](CC(C)C)NC(=O)[C@@H]2CCCN2C(=O)C[C@H](Cc2ccccc2)NC1=O has PAMPA 1.1 × 10^-6 cm/s. The entry for CC(C)C[C@@H]1NC(=O)[C@H](CC(C)C)N(C)C(=O)[C@@H](C)N(C)C(=O)[C@H](Cc2ccccc2)NC(=O)CN(Cc2ccccc2)C(=O)[C@@H]2CCCN2C1=O lists PAMPA 12 × 10^-6 cm/s.

The entry for CC(C)C[C@@H]1C(=O)N[C@@H](Cc2ccccc2)C(=O)N2CCC[C@@H]2C(=O)N[C@@H](Cc2ccccc2)CC(=O)N(C)[C@@H](CC(C)C)C(=O)N(C)[C@H](CC(C)C)C(=O)N2CCC[C@@H]2C(=O)N1C lists PAMPA 3.5 × 10^-6 cm/s. The entry for CC(C)C[C@@H]1NC(=O)[C@@H]2CCCN2C(=O)[C@H](CC(C)C)N(C)C(=O)[C@H](CC(C)C)NC(=O)C[C@H](Cc2ccccc2)NC(=O)[C@H](Cc2ccccc2)NC1=O lists PAMPA 2.6 × 10^-6 cm/s. CC(C)C[C@@H]1NC(=O)[C@@H]2CCCN2C(=O)[C@H](CC(C)C)NC(=O)[C@@H](CC(C)C)N(C)C(=O)C[C@H](Cc2ccccc2)NC(=O)[C@H]2CCCN2C(=O)[C@H](Cc2ccccc2)NC1=O has PAMPA 3.1 × 10^-6 cm/s. CC(C)C[C@H]1NC(=O)[C@H](CC(C)C)N(C)C(=O)[C@H](C)N(C)C(=O)[C@H]2CCCN2C(=O)[C@H](Cc2ccccc2)NC(=O)[C@H](CC(C)C)N(C)C(=O)[C@@H]2CCCN2C1=O is reported with PAMPA 9.3 × 10^-6 cm/s.

CC(C)C[C@@H]1C(=O)N2CCC[C@@H]2C(=O)N(C)[C@@H](CC(C)C)C(=O)N[C@@H](Cc2ccccc2)C(=O)N2CCC[C@@H]2C(=O)N(C)[C@H](C)C(=O)N[C@H](CC(C)C)C(=O)N1C is reported with PAMPA 6.2 × 10^-6 cm/s.

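Lipid, pH, incubation time, direction and concentration are not recorded in the data file. The list need not hold all peptides of the study. Entries at the database's floor value (log10 P of -10) are not listed.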